Sequences of proteins named here, by UniProt entry; tags and fusion partners are left off.
UniProt P48775, whole entry: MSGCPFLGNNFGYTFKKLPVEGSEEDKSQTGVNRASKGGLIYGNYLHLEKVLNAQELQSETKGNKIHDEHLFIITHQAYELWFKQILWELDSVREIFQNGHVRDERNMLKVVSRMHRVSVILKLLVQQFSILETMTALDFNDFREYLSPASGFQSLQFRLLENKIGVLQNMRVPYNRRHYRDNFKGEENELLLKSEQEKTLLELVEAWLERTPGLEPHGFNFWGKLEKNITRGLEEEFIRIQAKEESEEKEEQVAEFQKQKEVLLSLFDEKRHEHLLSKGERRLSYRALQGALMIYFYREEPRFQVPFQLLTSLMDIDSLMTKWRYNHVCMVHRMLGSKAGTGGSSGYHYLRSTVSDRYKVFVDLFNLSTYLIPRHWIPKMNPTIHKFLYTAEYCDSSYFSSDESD
UniProt P14902, whole entry: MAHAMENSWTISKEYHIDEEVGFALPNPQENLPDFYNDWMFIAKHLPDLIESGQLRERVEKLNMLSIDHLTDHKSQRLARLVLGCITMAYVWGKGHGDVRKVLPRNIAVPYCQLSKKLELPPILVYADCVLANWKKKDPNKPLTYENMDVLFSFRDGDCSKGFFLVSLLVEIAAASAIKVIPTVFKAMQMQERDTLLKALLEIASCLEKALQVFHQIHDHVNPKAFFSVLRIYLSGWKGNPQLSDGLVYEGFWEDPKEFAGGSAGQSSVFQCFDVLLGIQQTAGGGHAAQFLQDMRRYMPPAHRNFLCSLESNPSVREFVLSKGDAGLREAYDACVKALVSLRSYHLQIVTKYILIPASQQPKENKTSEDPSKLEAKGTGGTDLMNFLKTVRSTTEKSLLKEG

In patent US10590086B2, “Pharmaceutical compound” (IOmet Pharma Ltd., priority 2014, dated 2020):

Assays:
[1] = molecular target: T1, TDO (Homo sapiens, UniProt P48775); experiment: A172 kynurenine cell-based assay; settings: A172 human glioblastoma cells, 48 hours, 500 μM L-tryptophan
[2] = molecular target: T1, TDO; experiment: hTDO biochemical coupled assay; settings: 330 μM L-tryptophan, 17 minutes, room temperature
[3] = molecular target: T2, IDO (Homo sapiens, UniProt P14902); experiment: SKOV3 kynurenine cell-based assay (IDO induced by IFN-γ); settings: SKOV3 human ovarian adenocarcinoma cells, 500 ng/ml IFN-γ, 48 hours, 500 μM L-tryptophan
[4] = molecular target: T2, IDO; experiment: hIDO biochemical coupled assay; settings: 45 μM L-tryptophan, 17 minutes, room temperature

A172 Kynurenine cell based assay pIC50 [1]	hTDO biochemical assay pIC50 [2]	SKOV3 Kynurenine cell based assay pIC50 [3]	hIDO biochemical assay pIC50 [4]	SMILES
+++ (+++ = pIC50 ≥ 5.50)	–	–	–	O=C(CCF)N1CCC(c2cc(Cl)cc3[nH]ncc23)CC1
+++ (+++ = pIC50 ≥ 5.50)	+++ (+++ = pIC50 ≥ 5.50)	+++ (+++ = pIC50 ≥ 5.50)	+++ (+++ = pIC50 ≥ 5.50)	COCCN1C(=O)NC2(CCN(c3cc(Cl)cc4[nH]ncc34)CC2)C1=O
+++ (+++ = pIC50 ≥ 5.50)	–	+ (+ = pIC50 4.00-4.49)	+/− (+/− = pIC50 < 4.00)	OC(CC1CCCCC1)c1cc(Cl)cc2[nH]ncc12 (centres unmarked)
